The values below come from patent US20040142972A1, “CNS target modulators” (Hypnion, Inc., priority 2001, published 2004).

Amino acid sequences for entries named in this document (tags omitted).
UniProt P08172, whole entry: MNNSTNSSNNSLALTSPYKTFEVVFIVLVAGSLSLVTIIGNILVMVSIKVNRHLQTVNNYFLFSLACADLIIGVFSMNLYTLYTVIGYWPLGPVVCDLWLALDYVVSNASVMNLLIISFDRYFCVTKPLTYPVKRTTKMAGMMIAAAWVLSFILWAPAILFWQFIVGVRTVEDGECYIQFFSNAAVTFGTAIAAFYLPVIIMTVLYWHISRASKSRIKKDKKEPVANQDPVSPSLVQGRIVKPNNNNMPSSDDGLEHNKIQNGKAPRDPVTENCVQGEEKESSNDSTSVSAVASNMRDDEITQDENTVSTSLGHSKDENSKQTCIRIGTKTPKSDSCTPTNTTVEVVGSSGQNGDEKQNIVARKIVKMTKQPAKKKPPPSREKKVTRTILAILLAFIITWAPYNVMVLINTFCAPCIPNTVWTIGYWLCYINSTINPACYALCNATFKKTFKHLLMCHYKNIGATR

The assay concerns the target T1, cloned muscarinic - M2 binding site (Homo sapiens, UniProt P08172).
T1 construct: expressed in transfected cells; host or cells: CHO cells
Briefly: Muscarinic M2 binding assay, [3H]-Scopolamine N-Methyl Chloride, human recombinant expressed in CHO cells. Particulars: Table 6, read-out: Receptor Binding Data (Ki nM) M2.

For orientation: Ki means the dissociation constant of the complex between target and ligand, obtained from inhibition or displacement. Turning to `O=C(O)CN1CCC(=C2c3ccccc3COc3ccccc32)CC1` [Compound 7a], the Ki is above 10000 nM.
